The record followed here is ChEMBL document CHEMBL1128289, “Reductive chemistry of the novel hypoxia-selective cytotoxin 5-[N,N-bis(2-chloroethyl)amino]-2,4-dinitrobenzamide” (J Med Chem, 1995).

In this assay the test system is CHO-AA8. The experiment in a line: Cytotoxicity in a growth inhibition assay against aerobic cultures of AA8 cells was determined. It counts as functional, cell-based, Cricetulus griseus.

In turn, `NC(=O)c1cc(N(CCCl)CCCl)c([N+](=O)[O-])cc1N` returned an IC50 of 9.8 µM.
In the case of `NC(=O)c1cc(N(CCCl)CCCl)c(N)cc1N`, 1 µM corresponded to half-maximal inhibition (IC50). Against the preceding compound, the IC50 is about 9.8-fold lower.
